The experiment deals with PI3K delta (Homo sapiens, UniProt O00329). Nature of the experiment: Luciferase-coupled chemiluminescence kinase assay (ATP consumption, KinaseGlo). Particulars: read-out: PI3K Delta Activity IC50. (In general: Kinase-Glo measures the ATP left after a reaction by luminescence.)

Amino acid sequences for entries named in this document (tags omitted).
UniProt O00329, whole entry: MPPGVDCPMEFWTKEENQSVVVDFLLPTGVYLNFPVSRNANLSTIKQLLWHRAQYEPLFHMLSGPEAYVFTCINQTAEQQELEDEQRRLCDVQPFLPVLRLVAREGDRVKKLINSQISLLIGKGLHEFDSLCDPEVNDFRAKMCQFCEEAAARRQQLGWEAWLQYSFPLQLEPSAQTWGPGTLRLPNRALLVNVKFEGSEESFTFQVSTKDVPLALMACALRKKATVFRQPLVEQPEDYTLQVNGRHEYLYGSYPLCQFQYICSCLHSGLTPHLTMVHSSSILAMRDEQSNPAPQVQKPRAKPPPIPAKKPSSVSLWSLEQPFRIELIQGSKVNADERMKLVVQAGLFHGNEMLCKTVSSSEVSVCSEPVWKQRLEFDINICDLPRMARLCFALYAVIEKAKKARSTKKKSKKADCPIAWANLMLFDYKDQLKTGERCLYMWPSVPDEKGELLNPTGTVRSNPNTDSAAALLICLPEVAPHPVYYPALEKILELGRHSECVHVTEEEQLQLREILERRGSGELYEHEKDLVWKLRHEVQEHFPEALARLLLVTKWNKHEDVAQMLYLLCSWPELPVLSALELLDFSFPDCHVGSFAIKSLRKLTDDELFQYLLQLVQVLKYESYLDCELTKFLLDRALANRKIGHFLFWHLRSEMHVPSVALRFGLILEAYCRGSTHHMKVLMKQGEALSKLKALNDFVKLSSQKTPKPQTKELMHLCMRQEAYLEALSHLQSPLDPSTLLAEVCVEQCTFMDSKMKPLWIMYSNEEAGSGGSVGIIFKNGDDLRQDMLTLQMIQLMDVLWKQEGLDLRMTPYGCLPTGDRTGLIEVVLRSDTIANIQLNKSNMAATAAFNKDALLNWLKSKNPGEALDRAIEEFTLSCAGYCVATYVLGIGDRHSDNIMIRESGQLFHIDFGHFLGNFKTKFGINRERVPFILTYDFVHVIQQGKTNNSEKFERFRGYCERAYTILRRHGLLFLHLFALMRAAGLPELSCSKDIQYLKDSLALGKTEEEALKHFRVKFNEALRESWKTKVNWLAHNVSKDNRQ
UniProt P27986, whole entry partner: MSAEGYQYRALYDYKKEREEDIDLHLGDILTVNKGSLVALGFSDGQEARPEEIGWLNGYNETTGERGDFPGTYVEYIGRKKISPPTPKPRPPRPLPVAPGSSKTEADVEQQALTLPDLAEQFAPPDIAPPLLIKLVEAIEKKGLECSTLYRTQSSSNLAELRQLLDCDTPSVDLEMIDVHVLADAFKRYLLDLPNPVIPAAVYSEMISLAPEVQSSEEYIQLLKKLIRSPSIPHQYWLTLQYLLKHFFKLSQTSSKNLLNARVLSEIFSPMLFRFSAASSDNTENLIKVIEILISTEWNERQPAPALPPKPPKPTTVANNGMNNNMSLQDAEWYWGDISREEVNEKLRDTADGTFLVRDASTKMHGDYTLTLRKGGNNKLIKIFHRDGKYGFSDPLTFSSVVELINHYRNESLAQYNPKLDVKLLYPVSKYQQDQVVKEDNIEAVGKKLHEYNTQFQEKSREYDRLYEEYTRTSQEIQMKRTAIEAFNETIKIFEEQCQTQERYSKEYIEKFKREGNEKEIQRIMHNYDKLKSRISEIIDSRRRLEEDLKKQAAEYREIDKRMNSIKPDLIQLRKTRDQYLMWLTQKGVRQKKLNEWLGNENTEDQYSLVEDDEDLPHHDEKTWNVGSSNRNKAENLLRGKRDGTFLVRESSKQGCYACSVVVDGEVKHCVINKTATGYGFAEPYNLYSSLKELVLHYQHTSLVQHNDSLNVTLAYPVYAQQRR

For `Cn1c(C(=O)NCC2CC2)nc2c(N3CCC(n4c(N)nc5ccccc54)CC3)ncnc21`, the IC50 is 50 to 250 nM.

Values taken from patent US20140058103A1, “Inhibitors of PI3K-Delta and Methods of Their Use and Manufacture” (Exelixis, Inc., priority 2010, published 2014).
